Results taken from patent US9706755B2, “Controlled odor mimic permeation system” (dated 2017).

Key:
[1] = system: explosives detection canines; assay: Overall / individual canine performance (alerts plus interests over all hides; real explosives, odor chemicals, NESTT silica and petrolatum aids; Tables 69-72); conditions: for total number of alerts or interest / total number of hides: interest reported as alert; for overall canine population response to odor chemical (alert/interest): Table 70, all field tests pooled, canines 120, 140, 141 discounted; for Total, alerts or interest / hides / Total, alerts or interest as percent of hides: all canines 101-144; for Adjusted Total, alerts or interest / hides / Adjusted Total, alerts or interest as percent of hides: removing canines 120, 140 & 141
[2] = system: explosives detection canines; assay: First field test of gauze mimic aids, COMPS kits (Table 94); conditions: 100 μl at 10% w/v Acetonitrile on Gauze in 2 mil LDPE, Electrical Box
[3] = system: trained and certified explosives detection canines; assay: Canine field trials, active odor determination (odor line-up of hide boxes)
[4] = Table 63, 5.0 mg ethyl centralite, tablets with total 10.0 mg trinitroglycerin
[5] = Table 58, 0.5 μl in 2.0 mil LDPE
[6] = Table 60, 25 μl in 2.0 mil LDPE
[7] = Table 52, 1.0 g sealed inside LDPE
[8] = Table 59, 10.0 μl in 2.0 mil LDPE

Ethyl Centralite
total number of alerts or interest / total number of hides ([1]; Dog Number 101): 0/1
total number of alerts or interest / total number of hides ([1]; Dog Number 103): 0/1
total number of alerts or interest / total number of hides ([1]; Dog Number 106): 0/1
total number of alerts or interest / total number of hides ([1]; Dog Number 108): 1/3
total number of alerts or interest / total number of hides ([1]; Dog Number 109): 0/5
total number of alerts or interest / total number of hides ([1]; Dog Number 110): 0/2
total number of alerts or interest / total number of hides ([1]; Dog Number 111): 0/1
total number of alerts or interest / total number of hides ([1]; Dog Number 112): 1/2
total number of alerts or interest / total number of hides ([1]; Dog Number 113): 0/1
total number of alerts or interest / total number of hides ([1]; Dog Number 115): 0/1
total number of alerts or interest / total number of hides ([1]; Dog Number 116): 0/1
total number of alerts or interest / total number of hides ([1]; Dog Number 117): 1/2
total number of alerts or interest / total number of hides ([1]; Dog Number 118): 0/3
total number of alerts or interest / total number of hides ([1]; Dog Number 119): 0/2
total number of alerts or interest / total number of hides ([1]; Dog Number 121): 0/1
total number of alerts or interest / total number of hides ([1]; Dog Number 124): 0/1
total number of alerts or interest / total number of hides ([1]; Dog Number 126): 0/3
total number of alerts or interest / total number of hides ([1]; Dog Number 127): 0/3
total number of alerts or interest / total number of hides ([1]; Dog Number 128): 0/1
total number of alerts or interest / total number of hides ([1]; Dog Number 129): 0/1
total number of alerts or interest / total number of hides ([1]; Dog Number 130): 0/1
total number of alerts or interest / total number of hides ([1]; Dog Number 131): 0/1
total number of alerts or interest / total number of hides ([1]; Dog Number 132): 0/1
total number of alerts or interest / total number of hides ([1]; Dog Number 133): 0/1
total number of alerts or interest / total number of hides ([1]; Dog Number 140 (4/6 false alerts, discounted from adjusted totals)): 1/1
total number of alerts or interest / total number of hides ([1]; Dog Number 141 (4/6 false alerts, discounted from adjusted totals)): 1/1
total number of alerts or interest / total number of hides ([1]; Dog Number 142): 1/1
total number of alerts or interest / total number of hides ([1]; Dog Number 143): 1/1
total number of alerts or interest / total number of hides ([1]; Dog Number 144): 1/1
overall canine population response to odor chemical (alert/interest) [1]: 14.0%
Total, alerts or interest / hides [1]: 8/45
Total, alerts or interest as percent of hides [1]: 17.8%
Adjusted Total, alerts or interest / hides [1]: 6/43
Adjusted Total, alerts or interest as percent of hides [1]: 14.0%
Interest (dog numbers) [2]: 142
No Alert (dog numbers) [2]: 133 ,
alerts (canines alerting / canines tested) [3, 4]: 2/12
interests (canines showing interest / canines tested) [3, 4]: 1/12
% Alert ([3]; Table 63, Electrical Box, 50 μl at 10% w/v Acetonitrile on Gauze in 2.0 mil LDPE, 12 canines): 16.7%
alerts (canines alerting / canines tested) ([3]; Table 64, 10.0 mg): 0/6
alerts (canines alerting / canines tested) ([3]; Table 64, 1.0 g): 0/6

Cc1ccccc1[N+](=O)[O-]
total number of alerts or interest / total number of hides ([1]; Dog Number 101): 1/1
total number of alerts or interest / total number of hides ([1]; Dog Number 103): 1/1
total number of alerts or interest / total number of hides ([1]; Dog Number 106): 0/1
total number of alerts or interest / total number of hides ([1]; Dog Number 107): 0/1
total number of alerts or interest / total number of hides ([1]; Dog Number 108): 1/2
total number of alerts or interest / total number of hides ([1]; Dog Number 109): 1/4
total number of alerts or interest / total number of hides ([1]; Dog Number 110): 0/1
total number of alerts or interest / total number of hides ([1]; Dog Number 111): 0/1
total number of alerts or interest / total number of hides ([1]; Dog Number 113): 1/3
total number of alerts or interest / total number of hides ([1]; Dog Number 115): 0/1
total number of alerts or interest / total number of hides ([1]; Dog Number 116): 1/2
total number of alerts or interest / total number of hides ([1]; Dog Number 117): 0/1
total number of alerts or interest / total number of hides ([1]; Dog Number 118): 0/2
total number of alerts or interest / total number of hides ([1]; Dog Number 119): 1/3
total number of alerts or interest / total number of hides ([1]; Dog Number 121): 0/1
total number of alerts or interest / total number of hides ([1]; Dog Number 124): 0/1
total number of alerts or interest / total number of hides ([1]; Dog Number 125): 0/1
total number of alerts or interest / total number of hides ([1]; Dog Number 126): 0/2
total number of alerts or interest / total number of hides ([1]; Dog Number 127): 0/1
total number of alerts or interest / total number of hides ([1]; Dog Number 128): 0/1
total number of alerts or interest / total number of hides ([1]; Dog Number 129): 0/1
overall canine population response to odor chemical (alert/interest) [1]: 21.9%
Total, alerts or interest / hides [1]: 7/32
Total, alerts or interest as percent of hides [1]: 21.9%
Adjusted Total, alerts or interest / hides [1]: 7/32
Adjusted Total, alerts or interest as percent of hides [1]: 21.9%
alerts (canines alerting / canines tested) ([3]; Table 54, 5.0 mg): 1/8
interests (canines showing interest / canines tested) ([3]; Table 54, 5.0 mg): 2/8
% Alert ([3]; Table 54, Quart Can, 50 μl at 10% w/v Acetonitrile on Cotton, 9 canines): 11.1%
alerts (canines alerting / canines tested) [3, 5]: 2/10
alerts (canines alerting / canines tested) [3, 6]: 0/12
interests (canines showing interest / canines tested) [3, 6]: 1/12

O=C1CCCCC1
total number of alerts or interest / total number of hides ([1]; Dog Number 103): 0/1
total number of alerts or interest / total number of hides ([1]; Dog Number 106): 2/2
total number of alerts or interest / total number of hides ([1]; Dog Number 107): 0/1
total number of alerts or interest / total number of hides ([1]; Dog Number 108): 0/2
total number of alerts or interest / total number of hides ([1]; Dog Number 109): 0/3
total number of alerts or interest / total number of hides ([1]; Dog Number 110): 0/1
total number of alerts or interest / total number of hides ([1]; Dog Number 111): 0/1
total number of alerts or interest / total number of hides ([1]; Dog Number 112): 1/3
total number of alerts or interest / total number of hides ([1]; Dog Number 113): 1/3
total number of alerts or interest / total number of hides ([1]; Dog Number 114): 0/1
total number of alerts or interest / total number of hides ([1]; Dog Number 115): 2/3
total number of alerts or interest / total number of hides ([1]; Dog Number 116): 2/4
total number of alerts or interest / total number of hides ([1]; Dog Number 118): 0/1
total number of alerts or interest / total number of hides ([1]; Dog Number 119): 1/3
total number of alerts or interest / total number of hides ([1]; Dog Number 120 (20/28 false alerts, discounted from adjusted totals)): 1/1
total number of alerts or interest / total number of hides ([1]; Dog Number 124): 0/1
total number of alerts or interest / total number of hides ([1]; Dog Number 125): 0/1
total number of alerts or interest / total number of hides ([1]; Dog Number 126): 1/2
total number of alerts or interest / total number of hides ([1]; Dog Number 127): 0/2
total number of alerts or interest / total number of hides ([1]; Dog Number 128): 0/1
total number of alerts or interest / total number of hides ([1]; Dog Number 129): 1/1
total number of alerts or interest / total number of hides ([1]; Dog Number 130): 0/1
total number of alerts or interest / total number of hides ([1]; Dog Number 131): 0/1
total number of alerts or interest / total number of hides ([1]; Dog Number 132): 0/1
overall canine population response to odor chemical (alert/interest) [1]: 27.5%
Total, alerts or interest / hides [1]: 12/41
Total, alerts or interest as percent of hides [1]: 29.3%
Adjusted Total, alerts or interest / hides [1]: 11/40
Adjusted Total, alerts or interest as percent of hides [1]: 27.5%
alerts (canines alerting / canines tested) [3, 7]: 2/6
interests (canines showing interest / canines tested) [3, 7]: 2/6
alerts (canines alerting / canines tested) [3, 5]: 0/10
alerts (canines alerting / canines tested) [3, 8]: 0/10
interests (canines showing interest / canines tested) [3, 8]: one canine did give an interest
alerts (canines alerting / canines tested) [3, 6]: 1/12
interests (canines showing interest / canines tested) [3, 6]: 2/12
